# Screening data: PubChem BioAssay, National Center for Advancing Translational Sciences (NCATS)
# Rows were chosen to be rich in hits. Some 2.1% of all compounds tested hit in one or more screens of this group.
# Nrf2 ARE act: activates Nrf2 signaling; AREc32 ARE-luciferase reporter (MCF7-derived line), luminescence, 24 h; Potency, µM (series often up to 46.1 µM), hits mostly activators; actives 0.31% (n = 410,000); AID 624171; further: nearly all actives have a fitted effect of over 65% in size
#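 AREc32_Fluc, 1000 cells/well, OPTI-MEM + 5% FBS, o/n 37 deg C 5% CO2; 23 nL cpd by pin tool, 24 hr; Steady-Glo 30 min RT, luminescence.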
# Nrf2 inh: blocks Nrf2 signaling. actives 2.1% (n = 360,000). A549 ARE-Fluc reporter, luciferase luminescence, 18-24 h. AID 504444. Potency, µM (series often up to 46 µM), actives largely listed as inhibitors; further: nearly all actives have a fitted effect of over 60% in size
#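 In this cell-based qHTS, ARE-driven firefly luciferase in A549 cells reports Nrf2 activity; the luminescent signal after BugLite lysis is the measured value, with a prior CellTiter-Fluor read for cell health.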
# GRP78 ERSR act: induces the endoplasmic reticulum stress response in human glioma cells; U87-MG GRP78 promoter luciferase reporter, 16 h; actives 0.02% (n = 420,000); Potency, µM, most hits filed as activators; AID 602332; further: series mostly up to about 76 µM; nearly all actives have a fitted effect of over 35% in size
#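 Stably transfected U87-MG human glioma cells carrying a GRP78-based luminescent sensor were seeded at 1000 cells/well, pin-dosed with compounds and incubated 16 h. Luciferase reagent was then added, and end-point luminescence was read after 10 min at room temperature.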
# A549 tox-1: A549 cytotoxicity, counter-screen for Nrf2 inhibitors. A549 ARE-Fluc cells, CellTiter-Fluor viability, 18-24 h. actives 0.16% (n = 390,000). Potency, µM (titrated, usually from 46 µM), usual class: inhibitors
#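 Cytotoxicity counterscreen: CellTiter-Fluor fluorescence was measured in A549 ARE_Fluc cells after 18-24 h of compound exposure in a concentration series. The subsequent BugLite luminescent read reports ARE-luciferase activity.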
# PTAP TSG101 blk: blocks PTAP/TSG101 interaction to inhibit HIV-1 budding. Q99816. Fluorescence polarization, FITC-PTAP peptide / Tsg101 binding. Potency, µM (titrated, usually from 115 µM), most hits filed as inhibitors. 340,000 tested, under 10 active. AID 493005; active means well fitted inhibition curve with a large enough effect in the main read-out, with a control signal flat, not every such curve was filed as active; inconclusive means small, poorly fitted or top-dose-only effect, or effect the other way, or a change in a side signal; inactive means no such curve, though single readings can be large or run the other way
#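 Steps: Tsg101 binding domain dispensed (10 uM final), compounds pinned in DMSO, FITC-labeled PTAP-motif peptide added (50 nM final); after 20 min binding at room temperature, polarization measured.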
# miR-21 reporter: raises the signal of a miR-21 reporter | Potency, µM (doses to about 38.3 µM) | HeLa miR-21 FLuc reporter, luciferase, 48 h | AID 2288 | 340,000 tested, under 10 active; active = well fitted rising curve with a large enough effect; inconclusive = small, poorly fitted or top-dose-only effect; inactive = no such curve, though single readings can be large or run the other way;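 also: miR-21 action dims this reporter so a rising signal means less miR-21 action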
#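 HeLa cells endogenously expressing miR-21, stably carrying CMV-driven firefly luciferase with a downstream miR-21 binding site, 2000 cells/well. Titrations up to approximately 40 uM, 48 hours; luciferase luminescence read.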
# FLuc counter 3: counter-screen for Nrf2 inhibitors: firefly luciferase enzyme inhibition | shares compounds with Nrf2 inh | purified firefly luciferase, luminescence inhibition | Potency, µM (doses to about 57.5 µM), most hits filed as inhibitors | actives 4% (n = 1,400) | AID 720522; further: nearly all actives have a fitted effect of over 65% in size
# A549 tox-2: counter-screen for Nrf2 inhibitors: cytotoxicity in A549 ARE cells; shares compounds with Nrf2 inh; A549 ARE-Fluc cells, cytotoxicity counterscreen; Potency, µM (titrated, usually from 46.1 µM), most hits filed as inhibitors; actives 2% (n = 1,400);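 further: cells exposed to compounds for 18 to 24 hours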
# ARE-Fluc inh: confirmation of Nrf2 inhibitors in A549 ARE reporter cells; shares compounds with Nrf2 inh; A549 ARE-firefly luciferase reporter, luminescence; Potency, µM (highest dose often 46.1 µM), actives largely listed as inhibitors; actives 74% (n = 1,400); AID 720524; further: nearly all actives have a fitted effect of over 65% in size
# Hits are given with their value; i = inactive; ? = inconclusive; nt = no result given; ! = repeats disagree. Unless noted, the call rests on the fitted dose curve; in most records, active means well fitted curve in the direction sought with a large enough effect; inconclusive means small, poorly fitted or top-dose-only effect, or another doubt; inactive means no such curve, though single readings can be large; an effect the other way counts as inactive or inconclusive.
SMILES,Nrf2 ARE act,Nrf2 inh,GRP78 ERSR act,A549 tox-1,PTAP TSG101 blk,miR-21 reporter,FLuc counter 3,A549 tox-2,ARE-Fluc inh
Cc1ccc2nc(C(F)(F)F)c(C#N)c(N)c2c1,i,3.7µM,i,?,i,i,i,i,7.3µM
Cc1cc(C)c2nc(C(F)(F)F)c(C#N)c(N)c2c1,i,?,i,i,i,i,nt,nt,nt
C#Cc1cccc(Nc2ncnc3cc(OC)c(OC)cc23)c1,nt,nt,i,nt,nt,nt,nt,nt,nt
CC(Sc1nc2ccccc2c(=O)n1C)C(=O)Nc1ccc2c(c1)OCCO2 (stereo not given),i,5.2µM,i,i,i,nt,i,i,?
CC(C)Cn1c(SC(C)C(=O)Nc2ccc3c(c2)OCCO3)nc2ccccc2c1=O (stereo not given),i,i,i,i,i,i,nt,nt,nt
CC(C)C[C@H](NC(=O)[C@H](CCCCN)NC(=O)[C@H](CCCNC(=N)N)NC(=O)[C@H](C)NC(=O)[C@H](CO)NC(=O)[C@H](CCCCN)NC(=O)[C@H](CCCNC(=N)N)NC(=O)[C@H](C)NC(=O)CNC(=O)[C@@H](NC(=O)[C@H](Cc1ccccc1)NC(=O)CNC(=O)CNC(=O)[C@@H](N)Cc1ccccc1)[C@@H](C)O)C(=O)N[C@@H](C)C(=O)N[C@@H](CC(N)=O)C(=O)N[C@@H](CCC(N)=O)C(=O)O,nt,nt,i,nt,nt,nt,nt,nt,nt
CC(=O)c1c(C)[nH]c(C(=O)OCC(=O)Nc2ccc(Cl)c(S(=O)(=O)N(C)C)c2)c1C,i,9.2µM,i,i,i,?,i,i,9.2µM
O=C(O)CCc1cccc2ccccc12,nt,nt,i,nt,nt,nt,nt,nt,nt
C[n+]1ccccc1N1CCN(c2ccccc2Cl)CC1,i,3.3µM,i,i,i,i,i,i,6.5µM
COc1ccc(C(=S)N2CCN(c3ccccc3Cl)CC2)cc1OC,i,i,i,i,i,i,nt,nt,nt
CC(=O)N1c2ccc(S(=O)(=O)N3CCC(C(=O)Nc4cccc(C)n4)CC3)cc2CC1C (stereo not given),i,1.5µM,i,i,i,i,i,i,5.8µM
CC(=O)N1c2ccc(S(=O)(=O)N3CCC(C(=O)Nc4cccc(C(F)(F)F)c4)CC3)cc2CC1C (stereo not given),i,4.6µM,i,i,i,?,i,i,12µM
CCc1cccc(NC(=O)C2CCN(S(=O)(=O)c3ccc4c(c3)CC(C)N4C(C)=O)CC2)c1 (stereo not given),i,7.3µM,i,i,i,i,i,i,9.2µM
CC(=O)N1c2ccc(S(=O)(=O)N3CCC(C(=O)Nc4ccc(F)cc4)CC3)cc2CC1C (stereo not given),i,?,i,i,i,i,nt,nt,nt
COc1cccc(NC(=O)C2CCN(S(=O)(=O)c3ccc4c(c3)CC(C)N4C(C)=O)CC2)c1 (stereo not given),i,?,i,i,i,i,nt,nt,nt
CCCNc1nc(C#N)nc(Nc2ccccc2)n1,nt,i,nt,i,nt,nt,nt,nt,nt
CCCCOc1cc(C(=O)NCCN(CC)CC)c2ccccc2n1,i,9.2µM!,i,i,i,i,i,i,6.5µM
CCN(CC)CCNC(=O)c1cc(-c2ccc(Br)s2)nc2ccccc12,i,i,i,i,i,i,nt,nt,nt
COc1ccc([C@H]2CC(=O)C=C(c3ccnc4ccc(Cl)cc34)C2)cc1,i,7.3µM,i,i,i,nt,i,i,8.2µM
CC(=O)C[n+]1cccc(Br)c1,nt,nt,i,nt,nt,nt,nt,nt,nt
Cc1ccccc1-c1cc(C(=O)Nc2sc(C)c(C)c2C(N)=O)c2ccccc2n1,i,nt,i,i,i,?,nt,nt,nt
CCOC(=O)c1sc(NC(=O)c2cc(-c3ccccc3C)nc3ccccc23)c(C#N)c1C,i,4.1µM,i,?,i,?,12µM,?,4.1µM
c1ccc(CNc2ncnc3ccccc23)cc1,i,4.6µM,i,i,i,i,i,i,6.5µM
COc1cc2ncnc(NCc3ccccc3)c2cc1OC,i,?,i,i,i,i,nt,nt,nt
Cc1nc2cc(NC(=O)[C@@H]3C[C@@H](Sc4ccccn4)CN3Cc3ccc4c(c3)OCCO4)ccc2s1,nt,nt,i,nt,nt,nt,nt,nt,nt
SMILES,Nrf2 ARE act,Nrf2 inh,GRP78 ERSR act,A549 tox-1,PTAP TSG101 blk,miR-21 reporter,FLuc counter 3,A549 tox-2,ARE-Fluc inh
CN(C)S(=O)(=O)N1CCC(Oc2cccc(C(=O)NC3CCCCCC3)c2)CC1,i,2.6µM,i,i,i,i,i,?,0.073µM
CN(C)S(=O)(=O)N1CCC(Oc2ccc(C(=O)NC3Cc4ccccc4C3)cc2)CC1,i,?,i,i,i,i,nt,nt,nt
COc1ccc(CNC(=O)c2cc3c(C)nc4ccccc4c3o2)c(OC)c1,i,5.2µM,i,i,i,i,i,i,nt
CC(Oc1ccccc1)C(=O)Nc1ccc(C(N)=O)cc1 (stereo not given),i,nt,i,i,i,i,nt,nt,nt
NC(=O)c1ccc(NC(=O)C#Cc2ccccc2)cc1,?,4.6µM,?,i,i,i,?,?,5.8µM
CCN(CC)S(=O)(=O)c1ccc2oc(C(=O)Nc3ccc(OC)cc3OC)c(C)c2c1,i,3.7µM,i,i,i,i,i,i,15µM
CCN(CC)S(=O)(=O)c1ccc2oc(C(=O)NCc3ccc(F)cc3)c(C)c2c1,i,6.5µM,i,i,i,?,i,i,23µM
CN(C)c1ccc(N=Cc2ccncc2)cc1,nt,nt,i,nt,nt,nt,nt,nt,nt
NC(=O)C1CCCN1C(=O)C(Cc1cnc[nH]1)NC(=O)C1CCC(=O)N1 (stereo not given),nt,nt,i,nt,nt,nt,nt,nt,nt
O=C(CN(CCc1c[nH]c2ccccc12)S(=O)(=O)c1ccccc1)N1CCCCCC1,nt,nt,i,nt,nt,nt,nt,nt,nt
Cc1ccc(CCNc2ncnc(Cl)c2N)cc1,i,3.7µM,i,?,i,nt,?,i,?
Nc1c(Cl)ncnc1NCCO,i,i,i,i,i,i,nt,nt,nt
CCC1CN(CCNC(=O)c2ccc(C#CC(C)(C)O)cc2)Cc2cc(OC)ccc2O1 (stereo not given),nt,nt,i,nt,nt,nt,nt,nt,nt
O=C(Nc1ccc(F)cc1)c1cc(S(=O)(=O)N2CCCCC2)cs1,i,8.2µM,i,i,i,i,i,i,7.3µM
O=C(Nc1ccc(F)cc1)c1cc(S(=O)(=O)N2CCCCC2)ccc1F,i,i,i,i,i,i,nt,nt,nt
CC(=O)c1c(C)[nH]c2ccc(OCC(O)CNCCc3ccccc3)cc12 (stereo not given),nt,nt,i,nt,nt,nt,nt,nt,nt
Nc1[nH]c(=S)[nH]c(=O)c1N,nt,nt,i,nt,nt,nt,nt,nt,nt
